The list shows a part of the results, in another mix than the full data. Active and inactive are the calls of the source.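 The calls were made as follows: active = compounds whose signal lies at least 3.5 SD above the mean of all wells on their plate; inactive = the rest.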
assay: small molecules increasing insulinoma cell replication – ATP luminescence, uHTS, primary screen (AID 2380); conditions: MIN6 cells proliferation, ATPlite luminescence, 48 h; at 10 µM; active compounds read high; 100% = growth in 10% serum; cells starved in 0.2% serum;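 also: 0% = DMSO-treated cells in low-serum medium and 100% = 10% serum control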

| Structure (SMILES) | proliferation |
| --- | --- |
| Cc1nc2ccc3ccccc3c2s1.O=[N+]([O-])c1cc([N+](=O)[O-])c(O)c([N+](=O)[O-])c1 | inactive: 0.1% |
| O=[N+]([O-])c1cc([N+](=O)[O-])c(-c2cnn(-c3ccccc3)c2)c([N+](=O)[O-])c1 | inactive: -5.86% |
| O=[N+]([O-])c1cc([N+](=O)[O-])c(-n2nnc3ccccc32)c([N+](=O)[O-])c1 | inactive: -5.01% |
| CP(=O)(Nc1ccc(SC(F)(F)F)cc1)Oc1ccccc1 (stereo unspecified) | inactive: 0% |
| CCCOc1ccc(NP(C)(=O)Oc2ccc(Cl)cc2)cc1 (stereo unspecified) | inactive: 1.63% |
| COc1ccccc1OP(C)(=O)Nc1c(C)cccc1C (stereo unspecified) | inactive: 0.92% |
| CN1CCCCC1COC(=O)C1(O)c2ccccc2CCc2ccccc21 (stereo unspecified) | inactive: 0% |
| O=[N+]([O-])c1cc([N+](=O)[O-])c(Nc2nnnn2CCO)c([N+](=O)[O-])c1 | inactive: -1.9% |
| CC1=C2N=C(C=C3N=C(C(C)=C4[N-][C@@](C)([C@@H]5N=C1[C@](C)(CCC(=O)NC[C@@H](C)OP(=O)([O-])O[C@H]1[C@@H](O)[C@@H](n6cnc7cc(C)c(C)cc76)O[C@@H]1CO)[C@H]5CC(N)=O)[C@@](C)(CC(N)=O)[C@@H]4CCC(N)=O)[C@@](C)(CC(N)=O)[C@@H]3CCC(N)=O)C(C)(C)[C@@H]2CCC(N)=O.[C-]#N.[Co+3] | inactive: 1.2% |
| CCOC(=O)C(CC)C1=NC(C)(C)Cc2ccccc21.O=[N+]([O-])c1cc([N+](=O)[O-])c(O)c([N+](=O)[O-])c1 (stereo unspecified) | inactive: -2.78% |
| CC1=NCCc2c1[nH]c1ccccc21.O=[N+]([O-])c1cc([N+](=O)[O-])c(O)c([N+](=O)[O-])c1 | inactive: -0.19% |
| O=C(O)c1cccc(Nc2c([N+](=O)[O-])cc([N+](=O)[O-])cc2[N+](=O)[O-])c1 | inactive: -1.08% |
| Cc1ccc(C)c(NP(C)(=O)Oc2ccccc2)c1 (stereo unspecified) | inactive: -1.87% |
| CP(=O)(Nc1cccc(Br)c1)Oc1ccccc1 (stereo unspecified) | inactive: -1.87% |
| Cc1cc(C)cc(OP(C)(=O)Nc2ccccn2)c1 (stereo unspecified) | inactive: -0.12% |
| CCOC(=O)c1ccc(NP(C)(=O)Oc2cc(C)cc(C)c2)cc1 (stereo unspecified) | inactive: 0% |
| Cc1cc(C)cc(OP(C)(=O)Nc2ccc(C)cc2C)c1 (stereo unspecified) | inactive: -1.41% |
| COc1ccccc1OP(C)(=O)Nc1cccc(Br)c1 (stereo unspecified) | inactive: 4.71% |
| CCN(CC)CCCOC(=O)C(O)(c1ccccc1)c1ccccc1 | inactive: 0.03% |

| Structure (SMILES) | proliferation |
| --- | --- |
| Cc1cc(C)cc(OP(C)(N)=O)c1 (stereo unspecified) | inactive: -3.16% |
| COc1ccccc1OP(C)(=O)Nc1cc(Cl)ccc1C (stereo unspecified) | inactive: 0.67% |
| COc1ccc(OP(C)(=O)Nc2cccc(F)c2)cc1 (stereo unspecified) | inactive: 0.18% |
| COc1ccccc1OP(C)(=O)Nc1ccc(C)cc1 (stereo unspecified) | inactive: -2.01% |
| Cc1ccc(NP(C)(=O)Oc2ccccc2)c(C)c1 (stereo unspecified) | inactive: 0% |
| CCOC(=O)c1ccc(NP(C)(=O)Oc2ccccc2)cc1 (stereo unspecified) | inactive: 0% |
| CC(C)(C)c1ccc(OP(C)(=O)Nc2ccc(SC(F)(F)F)cc2)cc1 (stereo unspecified) | inactive: -2.76% |
| Cc1cccc(C)c1OP(C)(N)=O (stereo unspecified) | inactive: -0.16% |
| O=[N+]([O-])c1cc([N+](=O)[O-])c(Nc2cccnc2)c([N+](=O)[O-])c1 | inactive: -7.87% |
| CP(=O)(Nc1ccccc1Br)Oc1ccccc1 (stereo unspecified) | inactive: -3.76% |
| COc1ccccc1OP(C)(=O)Nc1ccccc1 (stereo unspecified) | inactive: -2.21% |
| CP(=S)(Nn1cnnc1)Oc1ccccc1 (stereo unspecified) | inactive: -1.22% |
| CP(=O)(Nc1ccccn1)Oc1ccc(Cl)cc1 (stereo unspecified) | inactive: -2.74% |
| CCOC(=O)c1ccc(NP(C)(=O)Oc2ccc(OC)cc2)cc1 (stereo unspecified) | inactive: 0% |
| O=[N+]([O-])c1cc([N+](=O)[O-])c(O)c([N+](=O)[O-])c1.c1ccc(Oc2ccncc2)cc1 | inactive: 1.11% |
| CCOP(C)(=S)SCC(=O)NC(C)C(=O)O (stereo unspecified) | inactive: -0.13% |
| CCc1ccc(OP(C)(=O)N2CCN(c3ccc([N+](=O)[O-])cc3)CC2)cc1 (stereo unspecified) | inactive: 0.06% |
| CP(=O)(NC(=O)Nc1ccccc1)Oc1ccccc1 (stereo unspecified) | inactive: -1.2% |
| Cc1cc(C)cc(OP(C)(=O)Nc2ccc(SC(F)(F)F)cc2)c1 (stereo unspecified) | inactive: -2.38% |

| Structure (SMILES) | proliferation |
| --- | --- |
| Cc1cccc(C)c1OP(C)(=O)Nc1ccc(SC(F)(F)F)cc1 (stereo unspecified) | inactive: -6.92% |
| CP(=O)(Nc1ccc(SC(F)(F)F)cc1)Oc1ccc(Cl)cc1 (stereo unspecified) | inactive: -1.85% |
| CP(=O)(Oc1ccccc1)OC(c1ccccc1)C(F)(F)F (stereo unspecified) | inactive: 1.68% |
| CN(C)C(=O)c1c([N+](=O)[O-])cc([N+](=O)[O-])cc1[N+](=O)[O-] | inactive: -5.65% |
| CC(C)(C)c1ccc(OP(C)(=O)O)cc1 | inactive: 2.35% |
| COc1ccccc1OP(C)(=O)Nc1ccccc1Br (stereo unspecified) | inactive: -0.88% |
| CP(=O)(Nc1ccc(Cl)cc1)Oc1ccc(F)cc1 (stereo unspecified) | inactive: -3.24% |
| COc1ccccc1OP(C)(=O)Nc1c(C)n(C)n(-c2ccccc2)c1=O (stereo unspecified) | inactive: -0.99% |
| O=C(OCCCN1CCCC1)C(O)(c1ccccc1)C1CCCCC1 (stereo unspecified) | inactive: -2.29% |
| CP(=O)(Oc1ccccc1)N1CCOC1=O (stereo unspecified) | inactive: 0.03% |
| CCc1ccc(OP(C)(=O)Nc2cccnc2)cc1 (stereo unspecified) | inactive: -2.41% |
| CCN(CC)CC(O)COC(=O)C(O)(c1ccccc1)C1CCCCC1 (stereo unspecified) | inactive: -0.74% |
| COc1ccc(OP(C)(=O)Nc2ccc(Br)cc2)cc1 (stereo unspecified) | inactive: -1.06% |
| CCOC(=O)c1ccc(NP(C)(=O)Oc2ccc(Cl)cc2)cc1 (stereo unspecified) | inactive: -1.99% |
| CP(=O)(OC12CC3CC(CC(C3)C1)C2)OC12CC3CC(CC(C3)C1)C2 | inactive: -4.94% |
| Nc1ccc2c(ccc3cccnc32)n1.O=[N+]([O-])c1cc([N+](=O)[O-])c(O)c([N+](=O)[O-])c1 | inactive: -1.31% |
| CP(=O)(OCCOc1ccccc1)OCCOc1ccccc1 | inactive: -2.78% |
| CP(=O)(Nc1ccc(Cl)cc1Cl)Oc1ccccc1 (stereo unspecified) | inactive: 0.14% |

Source: PubChem BioAssay AID2380 (Sanford-Burnham Center for Chemical Genomics, 2010)
